PubChem BioAssay AID2435 (The Scripps Research Institute Molecular Screening Center, 2010)
Only a part is listed here, and it is no random draw. Activity calls are given as the source filed them.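 Rule for the calls: active = activation above the mean of all tested compounds plus 3 SD, cutoff set per screening run (cut at about 20% in these data); inactive = the rest.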

By UniProt entry, the sequences of proteins in these tests, tags left out.
UniProt P30559, whole entry: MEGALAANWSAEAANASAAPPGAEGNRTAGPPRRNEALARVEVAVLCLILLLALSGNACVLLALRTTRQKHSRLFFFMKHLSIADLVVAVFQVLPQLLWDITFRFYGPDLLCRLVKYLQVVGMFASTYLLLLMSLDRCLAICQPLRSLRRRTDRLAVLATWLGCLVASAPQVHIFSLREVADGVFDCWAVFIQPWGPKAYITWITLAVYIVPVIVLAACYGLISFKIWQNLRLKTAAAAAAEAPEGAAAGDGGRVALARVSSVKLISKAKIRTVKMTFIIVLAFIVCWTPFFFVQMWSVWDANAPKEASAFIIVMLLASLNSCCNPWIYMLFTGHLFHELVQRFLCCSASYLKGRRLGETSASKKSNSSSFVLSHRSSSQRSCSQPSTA

What follows are molecules tested against Oxytocin receptor (Homo sapiens) (UniProt P30559) (assay: human OXTR agonists, primary screen, fluorescence, CHO-OTR cells, Fluo-8 calcium (AID 2435;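 note: peak over basal fluorescence ratio from a 100 s FLIPR kinetic read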)). Details: Fluo-8 calcium fluorescence, at 3 µM, active compounds read high, normalized: DMSO 0%, oxytocin 100%.

SMILES | activation
Nc1cccc2c([As](=O)(O)O)cccc12 | inactive: 18.4%
